Results as given in PMC6680510, “Benzotriazine Di-Oxide Prodrugs for Exploiting Hypoxia and Low Extracellular pH in Tumors” (Molecules, 2019).

Test system: FaDu cells
Assay: IC50 assay (inhibition of proliferation, 4 h exposure, SRB)
Type: cell-based

O=C(O)CCCc1ccc(N(CCCl)CCCl)cc1 [Compound 1, chlorambucil]
ACR (oxic IC50/anoxic IC50) (pHe 6.5): 1.41 ± 0.42 | ACR (oxic IC50/anoxic IC50) (pHe 7.4): 1.14 ± 0.14
